# Activity calls are given as the source filed them. The rule behind the calls is not given here.
# Test system: NCI-H1975
# Assay: Antitumor activity against human NCI-H1975 cells xenografted in BALB/c nude mouse assessed as reduction in tumor growth at 60 mg/kg, ig administered once daily for 3 weeks
# Type: functional, organism-based
# Conditions: dose 60.0 mg/kg/day
structure (smiles),measurement,value
COc1cc2ncnc(Nc3ccc(F)c(Cl)c3)c2cc1OCCCN1CCOCC1,Activity,inactive
